Experimental data published in patent publication US4299813A, “Assay kit and method” (priority 1979, dated 1981).
Several values for one entry are separate records, joined by “and”; a condition that tells them apart may be missing. Identical values can stand only once. Like-named read-outs stand apart in the source and are kept apart here.

Sequences of proteins named here, by UniProt entry; tags and fusion partners are left off.
UniProt P31389, whole entry: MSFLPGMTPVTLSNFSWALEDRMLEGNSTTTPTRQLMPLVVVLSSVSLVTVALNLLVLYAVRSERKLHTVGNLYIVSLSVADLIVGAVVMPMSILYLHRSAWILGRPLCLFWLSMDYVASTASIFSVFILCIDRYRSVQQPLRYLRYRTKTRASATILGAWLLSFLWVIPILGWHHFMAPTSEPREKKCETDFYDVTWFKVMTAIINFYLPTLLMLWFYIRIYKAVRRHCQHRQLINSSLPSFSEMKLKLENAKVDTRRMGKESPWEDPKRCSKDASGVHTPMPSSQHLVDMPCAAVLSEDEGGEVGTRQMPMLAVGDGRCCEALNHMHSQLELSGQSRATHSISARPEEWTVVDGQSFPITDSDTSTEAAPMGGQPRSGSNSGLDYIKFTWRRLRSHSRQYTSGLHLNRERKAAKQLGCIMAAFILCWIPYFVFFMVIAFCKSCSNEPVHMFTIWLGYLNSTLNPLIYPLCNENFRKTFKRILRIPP

Target: histamine H1 receptor (guinea pig cerebellar membranes) (Cavia porcellus, UniProt P31389)
Conditions: Table I
[1] = Sample 1, actual concentration 1 μM
[2] = Sample 2, actual concentration 0.2 μM
[3] = Standard C, 5 μM amitriptyline in serum
[4] = Standard D, 1 μM amitriptyline in serum
[5] = Standard E, .2 μM amitriptyline in serum
[6] = Standard F, .04 μM amitriptyline in serum

With `CN(C)CCC=C1c2ccccc2CCc2ccccc21` [amitriptyline] the B/Bo [1] was 0.369 and 0.414, the CPM [1] was 4179 CPM and 4536 CPM and the Calculated conc. [1] was 1.058 µM and 0.884 µM. The “Logit (B/Bo)” value [1] was -0.234 and -0.151, the B/Bo [2] was 0.693 and 0.757 and the CPM [2] was 6758 CPM and 7262 CPM. For the same molecule, the Calculated conc. [2] was 0.292 µM and 0.215 µM, the “Logit (B/Bo)” value [2] was 0.354 and 0.493 and the CPM (Standard A, 100 μM amitriptyline in serum) was 1187 CPM and 1083 CPM and 1484 CPM. The CPM [3] was 2132 CPM and 1864 CPM, the “Logit (B/Bo)” value [3] was -0.904 and -1.078 and the B/Bo [4] was 0.394 and 0.377. For the same molecule, the CPM [4] was 4383 CPM and 4244 CPM, the “Logit (B/Bo)” value [4] was -0.187 and -0.219 and the B/Bo [5] was 0.789 and 0.781. For the same molecule, the CPM [5] was 7523 CPM and 7456 CPM, the “Logit (B/Bo)” value [5] was 0.574 and 0.552 and the B/Bo [6] was 0.951 and 0.906. For the same molecule, the CPM [6] was 8804 CPM and 8448 CPM.
